Test results reported in ChEMBL document CHEMBL1125675, “Synthesis and in vitro biological activity of new deaza analogues of folic acid, aminopterin, and methotrexate with an L-ornithine side chain” (J Med Chem, 1991).

Target: T1, Dihydrofolate reductase (Homo sapiens, UniProt P00374)
T1 sequence (P00374 whole entry): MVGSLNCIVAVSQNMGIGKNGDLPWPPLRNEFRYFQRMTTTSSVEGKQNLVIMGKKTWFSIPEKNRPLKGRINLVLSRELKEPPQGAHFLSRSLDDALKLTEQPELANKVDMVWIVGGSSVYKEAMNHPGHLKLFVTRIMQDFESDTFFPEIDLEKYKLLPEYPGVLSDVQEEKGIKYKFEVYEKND
Experiment: Inhibition of dihydrofolate reductase(DHFR) enzyme from human leukemic lymphoblasts.
Outline: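 Spectrophotometric read-out at 340 nm. Enzyme was DHFR purified from human leukemic lymphoblasts (WI-L2/M4).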

NCCCC(NC(=O)c1ccc(NCc2cnc3nc(N)nc(N)c3n2)cc1)C(=O)O (stereo unspecified) showed an IC50 of 72 nM.
